iPSC survival up = increases survival of single human iPS cells; hiPSC single-cell survival, ATPlite luminescence; 100% = ROCK inhibitor wells, 0% = DMSO; hit rate 0.044% among 360,000; survival enhancement, % at 20 µM; AID 602274; in the data active = survival enhancement above about 18%;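 note: cells exposed to compounds for 16 hours before the ATP read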
FN deposition inh = fibronectin deposition inhibition; AH1F fibroblasts, Alexa488-fibronectin deposition fluorescence, overnight; inhibition, % at 12.6 µM; hit rate 0.086% among 350,000;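 active = mean inhibition across replicates of 30% or more, regardless of how many single replicates reach that level; inconclusive = mean under 30% yet at least half of replicates reach 30%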;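 note: positive control wells lacked labelled fibronectin entirely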
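Material: AH1F fibroblast monolayer depositing Alexa488-labelled fibronectin into matrix | Input: 10000 AH1F cells/well | Medium: DMEM plus 2% serum, read in PBS | Reagent: Alexa488-fibronectin, 24 nM final in well | Compound dosing: One dose per compound, pinned | Schedule: 1 h adhesion, overnight exposure | Measured by: Fluorescence at 485 nm excitation, 525 nm emission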
PGC1a acetyl inh = lowers PGC1a acetylation signal in U2OS cells. AlphaScreen anti-acetyl-lysine; with virally co-expressed GCN5 acetyltransferase. inhibition, % at 15.6 µM. hit rate 0.17% among 350,000. AID 651687;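 active = every replicate shows inhibition of at least 40%; inconclusive = mean inhibition at least 40% but some replicate below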;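 note: 0% = neutral control wells and 100% = positive control wells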
UUG fidelity = alters start codon recognition fidelity in yeast. S. cerevisiae UUG-firefly luciferase reporter, luminescence/redox ratio. activity score, % at 18.7 µM. 0.13% of 350,000 active. AID 602363;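 active = replicate mean at a twofold rise or more, about +100% in these data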;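 also: firefly luciferase made from a UUG start codon reports start codon fidelity; reporter light over untreated wells divided by growth signal over untreated wells; some hits fall short of that in this replicate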
C2C12 statin = suppressors of simvastatin-induced myotoxicity in C2C12 myotubes. ATP luminescence, 48 h; scaled: DMSO 0, geranylgeraniol control 100. rescue of ATP level, % at 7.49 µM. hit rate 0.78% among 330,000. AID 602340;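 active = mean ATP rescue above about 67%, or every replicate alone reaching that limit, limit read from the data, passing the limit was not always enough; inconclusive = no clear call, values can overlap the other calls; inactive = mean under the limit and some replicate under it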;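 note: myotubes were challenged with 10 µM simvastatin during compound exposure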
* = called active by the depositor. The list is not random: actives were taken first. Their share in the collection is about 0.91%.

Results for COCC(=O)N1[C@@H](CO)[C@H](c2ccccc2)[C@@H]1CN(C)C(=O)c1ccncc1 ?
FN deposition inh: -12; PGC1a acetyl inh: 4; UUG fidelity: -7; C2C12 statin: 12

What do the screens show for `COc1ccccc1OCCNC1CCCC1`?
iPSC survival up: 1; FN deposition inh: 3; PGC1a acetyl inh: -1; UUG fidelity: -17; C2C12 statin: 160*

Results for CCC(C)c1ccccc1OCCCNC1CCCC1 (stereo unspecified) ?
iPSC survival up: 0; FN deposition inh: 7; UUG fidelity: -6; C2C12 statin: 1

Results for C[C@@H]1CN([C@@H](C)CO)C(=O)Cc2cc(NS(=O)(=O)c3ccc(Cl)cc3)ccc2O[C@H]1CN(C)Cc1ccc2c(c1)OCO2 ?
PGC1a acetyl inh: -18; UUG fidelity: 9; C2C12 statin: 99*

Results for C[C@@H]1CN([C@H](C)CO)C(=O)Cc2cc(NS(=O)(=O)c3ccc(Cl)cc3)ccc2O[C@@H]1CN(C)Cc1ccc2c(c1)OCO2 ?
PGC1a acetyl inh: -13; UUG fidelity: 12; C2C12 statin: 55

How did Cc1ccc(S(=O)(=O)Nc2ccc3c(c2)CC(=O)N([C@H](C)CO)C[C@H](C)[C@@H](CN(C)Cc2ccc4c(c2)OCO4)O3)cc1 do in these assays?
PGC1a acetyl inh: -13; UUG fidelity: -2; C2C12 statin: 76*

What do the screens show for `C[C@@H]1CN([C@H](C)CO)C(=O)Cc2cc(NS(=O)(=O)c3ccc(Cl)cc3)ccc2O[C@H]1CN(C)Cc1ccc2c(c1)OCO2`?
PGC1a acetyl inh: -2; UUG fidelity: -2; C2C12 statin: 84*

How did Cc1noc(C)c1NC(=O)Nc1ccc2c(c1)C(=O)N([C@H](C)CO)C[C@H](C)[C@@H](CN(C)Cc1ccc(C(=O)Nc3ccccc3N)cc1)O2 do in these assays?
PGC1a acetyl inh: 10

How did Cc1cc(C)c(S(=O)(=O)/N=C2/C=C(Sc3ncn[nH]3)C(=O)c3ccccc32)cc1C do in these assays?
iPSC survival up: -3; FN deposition inh: 39*

How did Cc1ccc(C)c(S(=O)(=O)/N=C2\C=C(NS(=O)(=O)c3ccccc3)C(=O)c3ccccc32)c1 do in these assays?
iPSC survival up: 0; FN deposition inh: -10; UUG fidelity: -22; C2C12 statin: -10

How did C[C@@H]1CN([C@@H](C)CO)S(=O)(=O)c2ccc(-c3cccnc3)cc2O[C@H]1CN(C)Cc1ccncc1 do in these assays?
FN deposition inh: -1; PGC1a acetyl inh: -6; UUG fidelity: -8; C2C12 statin: -29

Results for COc1ccc(NC(=O)N2CCCCN3[C@H](C2)[C@@H](c2ccc(C#CCC(C)C)cc2)[C@@H]3CO)cc1 ?
PGC1a acetyl inh: -14; UUG fidelity: 28; C2C12 statin: -63

What do the screens show for `C[C@@H]1CN([C@H](C)CO)S(=O)(=O)c2ccc(-c3cccc(C(=O)N(C)C)c3)cc2O[C@H]1CN(C)C(=O)Cc1ccccn1`?
FN deposition inh: -17; PGC1a acetyl inh: 5; UUG fidelity: -5; C2C12 statin: -3

What do the screens show for `O=C(CNS(=O)(=O)c1ccc(Br)s1)N1CCN(c2ncccn2)CC1`?
iPSC survival up: -1; PGC1a acetyl inh: -8; UUG fidelity: -3; C2C12 statin: 150*

What do the screens show for `C[C@H]1CN([C@@H](C)CO)C(=O)Cc2cc(NC(=O)CCCCCC(=O)Nc3ccccc3N)ccc2O[C@H]1CN(C)Cc1ccc(Cl)c(Cl)c1`?
PGC1a acetyl inh: 1; UUG fidelity: 4; C2C12 statin: 105*

What do the screens show for `C[C@@H]1CN([C@@H](C)CO)C(=O)c2cc(NC(=O)CCCCCC(=O)Nc3ccccc3N)ccc2O[C@@H]1CN(C)C(=O)Nc1ccc(C(F)(F)F)cc1`?
FN deposition inh: -8; PGC1a acetyl inh: -9; UUG fidelity: -1; C2C12 statin: 68*

How did C[C@H](CO)N1C[C@H](C)[C@@H](CN(C)Cc2ccc(Cl)c(Cl)c2)Oc2ccc(NC(=O)CCCCCC(=O)Nc3ccccc3N)cc2CC1=O do in these assays?
PGC1a acetyl inh: -4

How did C[C@@H]1CN([C@H](C)CO)C(=O)Cc2cc(NC(=O)CCCCCC(=O)Nc3ccccc3N)ccc2O[C@H]1CN(C)CC1CCCCC1 do in these assays?
FN deposition inh: -20; PGC1a acetyl inh: -6; UUG fidelity: -2; C2C12 statin: 88*

Results for C[C@H]1CN([C@@H](C)CO)C(=O)Cc2cc(NC(=O)CCCCCC(=O)Nc3ccccc3N)ccc2O[C@@H]1CN(C)CC1CCCCC1 ?
FN deposition inh: -11; PGC1a acetyl inh: 2; UUG fidelity: 13; C2C12 statin: inconclusive

How did C[C@H](CO)N1C[C@H](C)[C@H](CN(C)Cc2ccccc2)Oc2ccc(NC(=O)CCCCCC(=O)Nc3ccccc3N)cc2CC1=O do in these assays?
PGC1a acetyl inh: 0; UUG fidelity: 7; C2C12 statin: 80*

What do the screens show for `C[C@H](CO)N1C[C@H](C)[C@H](CN(C)Cc2ccc(Oc3ccccc3)cc2)Oc2ccc(NC(=O)CCCCCC(=O)Nc3ccccc3N)cc2CC1=O`?
PGC1a acetyl inh: 13; UUG fidelity: 3; C2C12 statin: -7

How did C[C@H]1CN([C@@H](C)CO)C(=O)c2cc(NC(=O)CCCCCC(=O)Nc3ccccc3N)ccc2O[C@H]1CN(C)C(=O)Nc1ccc(C(F)(F)F)cc1 do in these assays?
FN deposition inh: -7; PGC1a acetyl inh: -10; UUG fidelity: 9; C2C12 statin: 41

How did C[C@@H]1CN([C@H](C)CO)C(=O)c2cc(NC(=O)Nc3ccc(C(F)(F)F)cc3)ccc2O[C@@H]1CN(C)Cc1ccc(Cl)c(Cl)c1 do in these assays?
FN deposition inh: 5; PGC1a acetyl inh: 7; UUG fidelity: -2; C2C12 statin: -93

Results for C[C@H]1CN([C@@H](C)CO)C(=O)Cc2cc(NC(=O)CCCCCC(=O)Nc3ccccc3N)ccc2O[C@@H]1CN(C)Cc1ccc(-c2ccccc2)cc1 ?
PGC1a acetyl inh: -7; UUG fidelity: 10; C2C12 statin: 133*

Already shown: two of the compounds above.
What do the screens show for `C[C@@H]1CN([C@H](C)CO)S(=O)(=O)c2ccc(-c3cccc(C(=O)N(C)C)c3)cc2O[C@H]1CN(C)C(=O)Cc1ccccn1`?
FN deposition inh: -17; PGC1a acetyl inh: 5; UUG fidelity: -5; C2C12 statin: -3

What do the screens show for `O=C(CNS(=O)(=O)c1ccc(Br)s1)N1CCN(c2ncccn2)CC1`?
iPSC survival up: -1; PGC1a acetyl inh: -8; UUG fidelity: -3; C2C12 statin: 150*

(continued)
What do the screens show for `C[C@H]1CN([C@@H](C)CO)C(=O)Cc2cc(NC(=O)CCCCCC(=O)Nc3ccccc3N)ccc2O[C@H]1CN(C)Cc1ccc(Oc2ccccc2)cc1`?
PGC1a acetyl inh: -6; UUG fidelity: 4; C2C12 statin: 104*

What do the screens show for `C[C@@H]1CN([C@@H](C)CO)C(=O)Cc2cc(NC(=O)CCCCCC(=O)Nc3ccccc3N)ccc2O[C@@H]1CN(C)Cc1ccc(-c2ccccc2)cc1`?
PGC1a acetyl inh: 10; UUG fidelity: 10; C2C12 statin: 19

How did CC(C)NC(=O)N(C)C[C@@H]1Oc2ccc(NC(=O)CCN3CCOCC3)cc2C(=O)N([C@@H](C)CO)C[C@H]1C do in these assays?
PGC1a acetyl inh: -1; UUG fidelity: 9; C2C12 statin: 10

Results for C[C@H]1CN([C@@H](C)CO)C(=O)Cc2cc(NC(=O)CCCCCC(=O)Nc3ccccc3N)ccc2O[C@H]1CN(C)Cc1ccc(C(F)(F)F)cc1 ?
FN deposition inh: -12; PGC1a acetyl inh: 1; UUG fidelity: 3; C2C12 statin: 111*

Filtered by structure, the compounds so far with an aryl methoxy group (2)
What do the screens show for `COc1ccccc1OCCNC1CCCC1`?
iPSC survival up: 1; FN deposition inh: 3; PGC1a acetyl inh: -1; UUG fidelity: -17; C2C12 statin: 160*

Results for COc1ccc(NC(=O)N2CCCCN3[C@H](C2)[C@@H](c2ccc(C#CCC(C)C)cc2)[C@@H]3CO)cc1 ?
PGC1a acetyl inh: -14; UUG fidelity: 28; C2C12 statin: -63

Screening results as filed in PubChem BioAssay.
